{"source": "patent US20210268122A1", "about": "“INHIBITION OF S[…] PROTEIN INHIBITORS OF CYSTEINE PROTEASES” (DYVE BIOSCIENCES, INC., priority 2017, published 2021)", "origin": "cited, not measured here", "key": {"[1]": {"tested_on": "LL/2 (murine lung)", "conditions": "LL/2 tumors; cited from earlier work"}, "[2]": {"tested_on": "PC3M (human prostate)", "conditions": "PC3M tumors; cited from earlier work"}, "[3]": {"tested_on": "B16-F10 (murine melanoma)", "conditions": "cited from earlier work"}, "[4]": {"tested_on": "MDA-MB-231 (human breast)", "conditions": "MDA-MB-231 tumors; cited from earlier work"}, "[5]": {"tested_on": "HCT116 (human colon)", "conditions": "cited from earlier work"}}}
{"smiles": "NCCCC[C@H](N)C(=O)O", "note": "[lysine buffer, lysine]", "values": [{"measurement": "response of tumors to lysine buffer therapy (metastasis)", "setting": "[1]", "value": "resistant"}, {"measurement": "metastasis under lysine buffers", "setting": "[2]", "value": "potentially inhibited"}, {"measurement": "response of tumors to lysine buffer therapy (metastasis)", "setting": "[3]", "value": "resistant"}, {"measurement": "metastasis under lysine buffers", "setting": "[4]", "value": "potentially inhibited"}, {"measurement": "response of tumors to lysine buffer therapy (metastasis)", "setting": "[5]", "value": "resistant"}]}
